In BindingDB's records for doi:10.1021/acs.jmedchem.1c01289 (University of South Florida, 2021):

Target: Glucagon receptor GCGR (Homo sapiens) (UniProt P47871)
Test: Activation of human GCGR expressed in human HEK293 cells assessed as luminescence signal incubated for 16 hrs at 37C measured by CRE-driven luciferase reporter assay

## CC[C@H](C)[C@@H]1NC(=O)[C@H](Cc2ccccc2)NC(=O)[C@H](CCC(=O)O)NC(=O)[C@H](CCCCN)NC(=O)[C@H](C)NC(=O)[C@H](C)NC(=O)[C@@H](NC(=O)[C@H](CCC(=O)O)NC(=O)[C@H](CC(=O)O)NC(=O)[C@H](CC(C)C)NC(=O)[C@H](Cc2ccc(O)cc2)NC(=O)[C@H](CCCCN)NC(=O)[C@H](CO)NC(=O)[C@H](Cc2ccc(O)cc2)NC(=O)[C@H](CC(=O)O)NC(=O)[C@H](CO)NC(=O)[C@@H](NC(=O)[C@H](Cc2ccccc2)NC(=O)[C@@H](NC(=O)CNC(=O)[C@H](CCC(N)=O)NC(=O)[C@H](CO)NC(=O)[C@@H](N)Cc2cnc[nH]2)[C@@H](C)O)[C@@H](C)O)CSCC(=O)NCCCC(C(=O)NCCOCCOCCOCCNC(=O)CCCCCCC(=O)O)NC(=O)CSC[C@@H](C(=O)N[C@@H](Cc2c[nH]c3ccccc23)C(=O)N[C@@H](CC(C)C)C(=O)N[C@@H](CC(C)C)C(=O)N[C@@H](CCCNC(=N)N)C(=O)N[C@@H](C)C(N)=O)NC1=O (stereo partly specified)
  EC50: 0.46 nM
